# Patent US20050123477A1, “Benzothiazole derivatives for in vivo imaging of amloid plaques” (priority 2002, published 2005)
# Details: rat, in vivo
substance,measurement,value
^14C-Butanol,Ratio of VD supernatant/pellet,51.0
